Usually IC50 stands for the concentration at which inhibition is half-maximal.

One assay concerns the target A*0206 (Homo sapiens, UniProt P04439, D140Y/D185E/D98H/E176V/E277Q/F33Y/G131W/G231S/I119V/I121R/I166T/I218V/L300P/L318F/N151K/N90K/P208A/P217A/Q86G/Q94H/R138H/R169H/T345S). The experiment in a line: HLA-A2 binding affinity of synthetic peptides (A*0206).
The target of another assay is A*6802 (Homo sapiens, UniProt P04439, A269V/D140Y/D185E/E176V/E277Q/E87N/F33Y/G231S/I121R/I166T/I218V/L180W/L300P/L318F/N151K/P208A/P217A/Q86R/R138H/R169H/S129P/T345S/V36M). The experiment in a line: HLA-A2 binding affinity of synthetic peptides (A*6802). As to conditions: read-out: Binding capacity (IC50§ nM) A*6802; 50% inhibitory nanomolar concentration.
The target of another assay is A*0203 (Homo sapiens, UniProt P04439, A173T/D140Y/D185E/D98H/E277Q/G131W/G231S/I119V/I121R/I166T/I218V/L180W/L300P/L318F/N151K/N90K/P208A/P217A/Q86G/Q94H/R138H/R169H/T345S). Kind of assay: HLA-A2 binding affinity of synthetic peptides (A*0203).
Another assay concerns the target A*0202 (Homo sapiens, UniProt P04439, D140Y/D185E/D98H/E176V/E277Q/G131W/G231S/I119L/I121R/I166T/I218V/L180W/L300P/L318F/N151K/N90K/P208A/P217A/Q67R/Q86G/Q94H/R138H/R169H/T345S). Kind of assay: HLA-A2 binding affinity of synthetic peptides (A*0202).
The target in a further assay is A*0201 (Homo sapiens, UniProt P04439, D140Y/D185E/D98H/E176V/E277Q/G131W/G231S/I119V/I121R/I166T/I218V/L300P/L318F/N151K/N90K/P208A/P217A/Q86G/Q94H/R138H/R169H/T345S). Kind of assay: HLA-A2 binding affinity of synthetic peptides (A*0201).

Each structure is given as a SMILES string. Read-outs that look alike come from different tables or passages of the source.

Regarding `CC[C@H](C)[C@H](NC(=O)CNC(=O)[C@H](Cc1c[nH]cn1)NC(=O)[C@H](CCC(=O)O)NC(=O)[C@@H](NC(=O)[C@@H]1CCCN1C(=O)[C@H](Cc1ccc(O)cc1)NC(=O)[C@H](CCCCN)NC(=O)[C@H](CC(C)C)NC(=O)[C@@H](N)[C@@H](C)O)[C@@H](C)CC)C(=O)O` [compound 6], the IC50 on A*0206 (read-out: Binding capacity (IC50§ nM) A*0206, 50% inhibitory nanomolar concentration) is 26400 nM.
Turning to `CC[C@H](C)[C@H](NC(=O)[C@H](CCC(N)=O)NC(=O)[C@H](CCC(=O)O)NC(=O)[C@H](CCCCN)NC(=O)[C@H](Cc1ccc(O)cc1)NC(=O)[C@H](CC(C)C)NC(=O)[C@@H](N)CCC(N)=O)C(=O)N[C@@H](C)C(=O)N[C@@H](CCCCN)C(=O)N[C@@H](CC(C)C)C(=O)O` [compound 87], the concentration for half-maximal inhibition (IC50) at A*6802 was determined as 9150 nM; at A*0203 (read-out: Binding capacity (IC50§ nM) A*0203, 50% inhibitory nanomolar concentration), 16 nM; at A*0202 (read-out: Binding capacity (IC50§ nM) A*0202, 50% inhibitory nanomolar concentration) it was 4.6 nM; on A*0201 (read-out: Binding capacity (IC50§ nM) A*0201, 50% inhibitory nanomolar concentration) it was 78 nM.
With `CC[C@H](C)[C@H](NC(=O)CNC(=O)CNC(=O)[C@H](C)NC(=O)[C@@H](NC(=O)[C@@H](N)CO)[C@@H](C)CC)C(=O)N[C@H](C(=O)NCC(=O)N[C@H](C(=O)O)C(C)C)[C@@H](C)CC` [compound 14], the IC50 at A*0206 stood at 0.14 nM; at A*0203, 1.1 nM; at A*0202, 1 nM; at A*0201 it was 0.56 nM.

The record behind these values is patent publication EP2710378B1, “METHOD TO PROGNOSE VIRAL INFECTION BY MEASURING T CELL RESPONSE OR AUTO-ANTIBODIES TO APOPTOTIC EPITOPES” (Università degli Studi di Roma "La Sapienza", priority 2011, dated 2012).
